Values quoted from earlier work, collected in US7628984B2, “Micronutrient formulations for pulmonary and heart health” (Premier Micronutrient Corporation, priority 2005, dated 2009).

Columns and labels:
[1] = system: 39,910 male health professionals; conditions: 60 IU vitamin E per day vs less than 7.5 IU per day; cited from earlier work
[2] = system: 87,245 healthy nurses; conditions: cited from earlier work
[3] = intravenous administration; cited from earlier work

Substance: Vitamin E
- lower relative risk of CAD [1]: 36%
- lower relative risk of CAD ([2]; supplements of more than 100 mg per day for at least 2 years): 48%
- lower relative risk of a major risk of CAD ([2]; top fifth vs lowest fifth of vitamin E intake, follow-up 8 years): 34%
- dose that can cause clotting disorders (reversible by vitamin K) [3]: 2,000 IU/day
